# Data as given in PubChem BioAssay AID588855 (National Center for Advancing Translational Sciences (NCATS), 2011).
# The entries are a selection whose mix differs from that of the whole data set. Inconclusive results are not listed. Calls of active or inactive are those of the source. The call rests on the fitted dose curve; in most records, active means well fitted inhibition curve with a large enough effect; inconclusive means small, poorly fitted or top-dose-only effect; inactive means no such curve, though single readings can be large or run the other way.
# Test: qHTS for Inhibitors of TGF-b; further: nearly all actives have a fitted effect of over 65% in size
# Settings: HepG2 CAGA-GFP TGF-b/SMAD3 reporter, GFP fluorescence, 18 h, TGF-beta stimulated, 500 pg/mL final; series mostly up to 46.1 µM; activity, negative = inhibition: at the top concentration
# On the % scale 0 is the no-effect control and ±100 the full control effect; potency means the concentration at half of the fitted maximal effect.
SMILES,"activity, negative = inhibition",Potency
COC(=O)C1(C)COP(=O)(N2CCCC2)OC1 (stereo not drawn),inactive: 19.2%,–
O=C(COc1ccccc1)OC1CN2CCC1CC2 (stereo not drawn),inactive: 14%,–
O=C(OC1CN2CCC1CC2)c1cccc([N+](=O)[O-])c1 (stereo not drawn),inactive: 14.3%,–
CCOC(=O)c1ccc(NC(=O)C(C)(CCl)SC)cc1 (stereo not drawn),inactive: 31.7%,–
CCC(C)N(CC(C)C)C(=S)SC(NC(C)=O)C(Cl)(Cl)Cl (stereo not drawn),inactive: -10.1%,–
CCOP(=O)(Nc1cccc2cccnc12)OCC,inactive: 4.17%,–
Cc1ccc(NP(=O)(Oc2ccccc2)Oc2ccccc2)nc1,inactive: 2.01%,–
O=[N+]([O-])c1cc([N+](=O)[O-])c(CCNc2ccccc2)c([N+](=O)[O-])c1,inactive: -24.9%,–
CCc1nc2c(n1)c1c(non1O)c1c2no[n+]1[O-],–,active: 15.8 µM
CC(=O)N1C2C3N(C(C)=O)C1C1N(C(C)=O)C(C(N1C(C)=O)N3C(C)=O)N2C(C)=O,inactive: 11.8%,–
O=[N+]([O-])c1cccc2n[nH]nc12,inactive: 28.2%,–
CCN(/C(=N/P(=O)(N1CCOCC1)N1CCOCC1)N1CCOCC1)c1ccc(OC)cc1,inactive: -5.47%,–
Nc1ccc([As](=O)(O)c2ccc(N)cc2)cc1,inactive: -0.111%,–
c1cc(-c2nn[nH]n2)ccc1-c1nn[nH]n1,inactive: -1.05%,–
CC1CCN(C(=O)Oc2c(Cl)cc(Cl)c3cccnc23)CC1,inactive: 28.4%,–
CC(C)=N/N=C(\N)N[N+](=O)[O-],inactive: 20.9%,–
CC(C)c1nc(Nc2ccccc2)n(P(=O)(N(C)C)N(C)C)n1,inactive: 1.1%,–
CN(C)C(=O)OCCc1n(C)cc[n+]1C,inactive: 4.79%,–
Cc1cc(C=O)ccc1N(CCCl)CCCl,inactive: -1.19%,–
O=C(Nc1cc([As](=O)(O)O)ccc1O)c1ccccc1,inactive: -17.3%,–
O=P(/N=c1/nc(-c2ccccc2)n(-c2ccccc2)s1)(Nc1ccccc1)Nc1ccccc1,inactive: -9.25%,–
O=[N+]([O-])c1ncn(CCn2ncnc2[N+](=O)[O-])n1,inactive: -9.51%,–

SMILES,"activity, negative = inhibition",Potency
CC(C)(C)C(=O)NC(Sc1ccncn1)C(Cl)(Cl)Cl (stereo not drawn),inactive: -23.2%,–
O=[N+]([O-])c1cccc(NC2=NCC(CBr)S2)c1 (stereo not drawn),inactive: -12.4%,–
COC(=O)C1(C)COP(=O)(Nc2ccccc2)OC1 (stereo not drawn),inactive: -1.17%,–
CN(C)P(=O)(N(C)C)n1c(Nc2ccccc2)nnc1-c1ccccc1,inactive: -19%,–
O=C(O)c1ccccc1[As](=O)(O)O,inactive: 0%,–
CC(=O)Nc1ccc([As](=O)(O)O)cc1,inactive: 2.97%,–
CCCC1OP(N)(=O)OCC1CC (stereo not drawn),inactive: -1.03%,–
CCOP(=O)(Nc1ccccc1)OCC,inactive: 8.71%,–
Cc1cc(SC(NC(=O)c2ccc(F)cc2)C(Cl)(Cl)Cl)ncn1 (stereo not drawn),inactive: -17.8%,–
CN(C(=O)Cc1ccc(Cl)c(Cl)c1)[C@H]1CCCC[C@@H]1N1CCCC1,inactive: 24.1%,–
Cc1ccc(NP(=O)(Oc2ccccc2F)Oc2ccccc2F)nc1,inactive: 8.51%,–
Nc1c(O)cc([N+](=O)[O-])cc1[N+](=O)[O-],inactive: 6.54%,–
Nc1cccc2ccc([As](=O)(O)O)cc12,inactive: 15.4%,–
CCN(N=Nc1nonc1N)c1nonc1N,inactive: 15.1%,–
CN(C(=O)Cc1ccc(Cl)c(Cl)c1)[C@H]1CCCC[C@H]1N1CCCC1,inactive: 9.16%,–
Cc1ccc(N/C(=N/P(=O)(N2CCOCC2)N2CCOCC2)N2CCOCC2)cc1,inactive: -14.4%,–
O=[N+]([O-])c1cc2c(cc1[N+](=O)[O-])OCO2,inactive: -28.7%,–
NC(=O)c1cc([N+](=O)[O-])cc([N+](=O)[O-])c1N,inactive: 10.1%,–
Clc1ccc(Cl)c(NC2=NCC(CBr)S2)c1 (stereo not drawn),inactive: -3.19%,–
CN1CCCC(OC(=O)C(c2ccccc2)c2ccccc2)C1 (stereo not drawn),inactive: 0.142%,–
COc1ccccc1OP(=O)(Nc1ccc(C)cn1)Oc1ccccc1OC,inactive: 7.04%,–
